One substance from US11737461B2, “Citrate perhydrates and uses thereof” (BIOREM ENGINEERING SA, priority 2018, dated 2023) can be followed below.

The nature of data set [1]: pH of an aqueous solution of the compound (pH meter). Format: physicochemical.
For data set [2] the following is noted: below 140° C., nitrogen, 10° C./min.

In the case of “anhydrous disodium citrate monoperhydrate [disodium citrate perhydrate]”, in data set [1] (diluted 20× in water), the “pH of an aqueous solution” value was 5.2 (±0.3). In data set [1] (sample solution of Table 13 (0.2 M H2O2 and/or citrate)), the pH was determined as 4.9. Besides, the TGA mass loss result in data set [2] was “less than 1%”.
